Assays:
Assay in all cases: Proliferation of tumor cell lines (Bracht et al.)
Assay type in all cases: cell-based
[1] = tested on: SISO; conditions: read-out: IC50 (μM) Mean, inhibition of cell proliferation
Description: (§1) The IC50 values of the cell proliferation was determined as described by Bracht et al. (28).
as §1

[2] = tested on: 5637; conditions: read-out: IC50 (μM) Mean, inhibition of cell proliferation
Description: as §1, §1

[3] = tested on: KYSE-70; conditions: Homo sapiens, read-out: IC50 (μM) Mean, inhibition of cell proliferation
Description: as §1, §1

[4] = tested on: RT-4; conditions: Homo sapiens, read-out: IC50 (μM) Mean, inhibition of cell proliferation
Description: as §1

[5] = tested on: MCF-7; conditions: Homo sapiens, MCF7, read-out: IC50 (μM) Mean, inhibition of cell proliferation
Description: as §1

[6] = tested on: LCLC; conditions: read-out: IC50 (μM) Mean, inhibition of cell proliferation
Description: as §1

[7] = tested on: DAN-G; conditions: read-out: IC50 (μM) Mean, inhibition of cell proliferation
Description: as §1

[8] = tested on: A427; conditions: Homo sapiens, A-427, read-out: IC50 (μM) Mean, inhibition of cell proliferation
Description: as §1

In the case of `CC(C)n1c2c(=O)ccc(=O)c2c2c(=O)c3ccccc3c21` [Compound 6b, 5-Isopropyl-5H-indeno[1,2-b]indole-6,9,10-trione], the IC50 [1] is reported as 1.54 µM, the IC50 [2] is reported as 1.67 µM and the IC50 [3] is reported as 1.54 µM. For the same compound, the IC50 [4] was > 10 µM, the IC50 [5] was 1.32 µM and the IC50 [6] was 1.47 µM. The IC50 [7] was > 10 µM and the IC50 [8] was 1.4 µM.

From US8133913B2, “Substituted indeno [1,2-b]indole derivatives as novel inhibitors of protein kinase CK2 and their use as tumor therapeutic agents, cytostatics and diagnostic aids” (Heinrich-Heine Universitat Dusseldof, priority 2006, dated 2012)
